Key:
Relaxin-3 receptor 1 [1] = target: T1, Relaxin-3 receptor 1 (Homo sapiens, UniProt Q9NSD7); test: Agonist activity at RXFP3 expressed in CHO-K1 cells assessed as inhibition of forskolin-induced cAMP accumulation after 6 hrs by beta galactosidase reporter gene assay; type: functional, cell-based
T1 sequence (Q9NSD7 whole entry): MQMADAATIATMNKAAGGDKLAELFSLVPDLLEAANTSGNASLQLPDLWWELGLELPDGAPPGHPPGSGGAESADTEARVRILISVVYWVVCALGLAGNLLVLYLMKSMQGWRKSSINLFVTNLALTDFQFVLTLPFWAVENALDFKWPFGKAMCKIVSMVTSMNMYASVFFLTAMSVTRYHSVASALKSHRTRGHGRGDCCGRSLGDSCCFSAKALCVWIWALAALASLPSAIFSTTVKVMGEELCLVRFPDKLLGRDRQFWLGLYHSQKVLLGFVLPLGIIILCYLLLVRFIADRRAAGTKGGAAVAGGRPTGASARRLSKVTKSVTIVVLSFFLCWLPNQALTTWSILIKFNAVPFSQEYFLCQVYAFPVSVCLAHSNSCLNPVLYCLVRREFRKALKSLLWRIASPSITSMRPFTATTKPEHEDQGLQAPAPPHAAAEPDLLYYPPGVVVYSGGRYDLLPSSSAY

Relaxin-3 receptor 1 [2] = target: T1, Relaxin-3 receptor 1; test: Displacement of europium-labelled H3 relaxin-B chain/INSL-5 chain from RXFP3 expressed in CHO-K1 cells; type: cell-based

IC50 (Relaxin-3 receptor 1 [1]): 12.6 nM
Ki (Relaxin-3 receptor 1 [2]): 110 nM
Structure (SMILES): CC[C@H](C)[C@@H]1NC(=O)[C@H](Cc2ccccc2)NC(=O)[C@H](CCC(=O)O)NC(=O)[C@H](CCCN=C(N)N)NC(=O)CNC(=O)[C@@H](N)CSSC[C@H](N)C(=O)N[C@@H](CCCCN)C(=O)N[C@@H](Cc2c[nH]c3ccccc23)C(=O)NCC(=O)N[C@@H](C)C(=O)N[C@@H](CO)C(=O)N[C@@H](CCCCN)C(=O)N[C@@H](CO)C(=O)N[C@@H](CCC(=O)O)C(=O)N[C@@H]([C@@H](C)CC)C(=O)N[C@@H](CO)C(=O)N[C@@H](CO)C(=O)N[C@@H](CC(C)C)C(=O)N[C@H](C(=O)O)CSSC[C@@H](C(=O)NCC(=O)NCC(=O)N[C@@H](CO)C(=O)N[C@@H](CCCN=C(N)N)C(=O)N[C@@H](Cc2c[nH]c3ccccc23)C(=O)O)NC(=O)[C@H]([C@@H](C)O)NC(=O)[C@H](Cc2ccccc2)NC(=O)[C@H]([C@@H](C)CC)NC(=O)[C@H](C(C)C)NC(=O)[C@H](C)NC(=O)[C@H](CCCN=C(N)N)NC1=O
